Assay results taken from patent US11192920B2, “Peptides for binding to CD44v6 and use thereof” (KYUNGPOOK NATIONAL UNIVERSITY INDUSTRY-ACADEMIC COOPERATION …, priority 2017, dated 2021).

Columns and labels:
MDA-MB-231 xenograft = conditions: for ex vivo fluorescence intensity in target tumors: 6 h post-injection, compared to control peptide; for in vivo tumor localization: FPR 675-labeled peptide i.v., MDA-MB-231 xenograft mice, 1-6 h
MDA-MB-231 and 4T1 cells = conditions: different concentration, 24 hours
Source text: Biotinylated peptide+avidin bead+cell lysate (complex 2) were eluted for western blot analysis using CD44v6 antibody to pull down the specific protein.

4T1 orthotopic mice = conditions: for ex vivo fluorescence intensity in target tumors: 6 h post-injection, compared to control peptide; for in vivo tumor localization: FPR 675-labeled peptide i.v., 4T1 orthotopic mice, 1-6 h

| Sequence | ex vivo fluorescence intensity in target tumors (MDA-MB-231 xenograft) | in vivo tumor localization (MDA-MB-231 xenograft) | cell viability (cytotoxicity) (MDA-MB-231 and 4T1 cells) | ex vivo fluorescence intensity in target tumors (4T1 orthotopic mice) | in vivo tumor localization (4T1 orthotopic mice) |
| --- | --- | --- | --- | --- | --- |
| CNEWQLKSC [v6Pep-2] | high accumulation | readily localized to tumor tissue | did not significantly affect cell viability | high accumulation | localized to tumor tissue |
| CNLNTIDTC [v6Pep-1] | high accumulation | readily localized to tumor tissue | did not significantly affect cell viability | high accumulation | localized to tumor tissue |
